Protein sequences, listed by entry. Tags and fused reporters are not part of them. Lines headed by an entry give the natural chain unless they say otherwise; changes in a name come on top.
UniProt P23458: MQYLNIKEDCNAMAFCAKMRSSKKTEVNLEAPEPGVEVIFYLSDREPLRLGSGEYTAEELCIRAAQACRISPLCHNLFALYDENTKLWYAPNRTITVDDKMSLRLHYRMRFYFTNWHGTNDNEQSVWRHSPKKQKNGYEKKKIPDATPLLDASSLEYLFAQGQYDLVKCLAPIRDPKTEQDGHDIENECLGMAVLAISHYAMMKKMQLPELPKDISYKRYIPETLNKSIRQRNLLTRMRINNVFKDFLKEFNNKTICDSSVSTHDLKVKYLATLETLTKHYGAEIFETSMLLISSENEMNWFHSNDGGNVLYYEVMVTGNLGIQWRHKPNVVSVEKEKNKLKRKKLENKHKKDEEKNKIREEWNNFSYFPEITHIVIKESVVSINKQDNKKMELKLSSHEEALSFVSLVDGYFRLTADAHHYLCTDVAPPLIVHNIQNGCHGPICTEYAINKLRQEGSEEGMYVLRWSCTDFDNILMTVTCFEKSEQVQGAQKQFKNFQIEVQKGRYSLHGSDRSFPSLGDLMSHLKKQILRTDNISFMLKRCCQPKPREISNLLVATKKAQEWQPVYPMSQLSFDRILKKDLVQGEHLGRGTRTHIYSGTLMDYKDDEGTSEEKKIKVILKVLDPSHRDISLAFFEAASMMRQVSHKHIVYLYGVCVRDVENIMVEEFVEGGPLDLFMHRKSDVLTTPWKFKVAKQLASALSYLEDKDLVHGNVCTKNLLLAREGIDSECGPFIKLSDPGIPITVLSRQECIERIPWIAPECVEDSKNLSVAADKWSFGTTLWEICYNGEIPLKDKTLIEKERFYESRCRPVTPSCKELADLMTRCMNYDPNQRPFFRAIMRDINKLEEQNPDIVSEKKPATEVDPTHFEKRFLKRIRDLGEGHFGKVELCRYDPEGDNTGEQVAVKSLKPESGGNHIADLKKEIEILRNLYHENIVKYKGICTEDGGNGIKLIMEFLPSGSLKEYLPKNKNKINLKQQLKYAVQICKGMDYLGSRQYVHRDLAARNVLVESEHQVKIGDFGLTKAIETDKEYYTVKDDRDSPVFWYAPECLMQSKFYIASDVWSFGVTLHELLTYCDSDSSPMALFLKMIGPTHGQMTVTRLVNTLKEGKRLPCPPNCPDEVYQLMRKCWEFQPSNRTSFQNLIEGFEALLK

According to ChEMBL document CHEMBL5728797, “Pyrrolopyrimidine derivatives as TAM inhibitors” (2021):

Molecular target: Tyrosine-protein kinase JAK1 (Homo sapiens, UniProt P23458)

Q: How did the IC50 turn out when `CN(C)Cc1cc(F)cc(OC2CCN(CC(CC#N)n3cc(-c4ncnc5[nH]ccc45)cn3)CC2)c1` (single isomer, unassigned) was run?
A: < 10 nM
